Calls of active or inactive are those of the source.
Test system: NF-kB luciferase reporter cells, PMA/ionomycin-induced
Assay: PubChem AID 2261

IC50: inactive: > 25 µM
SMILES: Cc1ccc(S(=O)(=O)n2c(N)nc3ccccc32)cc1

From PubChem BioAssay AID2261 (Sanford-Burnham Center for Chemical Genomics, 2010)
